This passage reports Ki results from BindingDB's records for PubMed 11303071 (Banyu Pharmaceutical, 2001).

Sequences of proteins named here, by UniProt entry; tags and fusion partners are left off. A change or cut given only in a name is not applied to a line headed by its entry.
UniProt P11229: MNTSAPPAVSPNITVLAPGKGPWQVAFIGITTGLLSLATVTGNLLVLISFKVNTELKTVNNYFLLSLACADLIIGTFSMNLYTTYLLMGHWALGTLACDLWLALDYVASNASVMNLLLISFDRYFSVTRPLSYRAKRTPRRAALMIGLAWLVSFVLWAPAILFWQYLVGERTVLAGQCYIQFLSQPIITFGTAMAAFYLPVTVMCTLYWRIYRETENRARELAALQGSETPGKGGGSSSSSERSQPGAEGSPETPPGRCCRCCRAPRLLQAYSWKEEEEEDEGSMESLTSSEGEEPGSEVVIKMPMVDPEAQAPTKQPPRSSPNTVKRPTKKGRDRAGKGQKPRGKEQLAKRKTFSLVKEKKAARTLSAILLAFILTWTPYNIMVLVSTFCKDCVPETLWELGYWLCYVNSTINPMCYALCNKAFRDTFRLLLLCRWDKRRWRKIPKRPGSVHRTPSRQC
UniProt P20309, whole entry: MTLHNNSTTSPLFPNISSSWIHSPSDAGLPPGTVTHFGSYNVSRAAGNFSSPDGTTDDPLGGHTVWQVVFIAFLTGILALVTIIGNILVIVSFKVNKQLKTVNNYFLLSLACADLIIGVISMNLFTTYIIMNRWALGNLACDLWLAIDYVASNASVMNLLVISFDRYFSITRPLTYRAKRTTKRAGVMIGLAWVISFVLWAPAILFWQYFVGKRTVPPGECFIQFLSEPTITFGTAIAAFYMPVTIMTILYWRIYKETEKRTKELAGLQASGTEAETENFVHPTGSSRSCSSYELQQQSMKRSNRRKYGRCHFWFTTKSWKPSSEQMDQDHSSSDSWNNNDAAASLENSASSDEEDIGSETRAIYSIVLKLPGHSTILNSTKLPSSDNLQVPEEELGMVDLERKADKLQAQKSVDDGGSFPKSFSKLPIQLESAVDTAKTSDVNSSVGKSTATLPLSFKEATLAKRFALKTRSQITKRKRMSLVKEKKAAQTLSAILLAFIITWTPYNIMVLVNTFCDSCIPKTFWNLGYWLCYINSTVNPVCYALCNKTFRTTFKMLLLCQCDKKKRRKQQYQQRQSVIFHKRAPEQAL
UniProt P08172, whole entry: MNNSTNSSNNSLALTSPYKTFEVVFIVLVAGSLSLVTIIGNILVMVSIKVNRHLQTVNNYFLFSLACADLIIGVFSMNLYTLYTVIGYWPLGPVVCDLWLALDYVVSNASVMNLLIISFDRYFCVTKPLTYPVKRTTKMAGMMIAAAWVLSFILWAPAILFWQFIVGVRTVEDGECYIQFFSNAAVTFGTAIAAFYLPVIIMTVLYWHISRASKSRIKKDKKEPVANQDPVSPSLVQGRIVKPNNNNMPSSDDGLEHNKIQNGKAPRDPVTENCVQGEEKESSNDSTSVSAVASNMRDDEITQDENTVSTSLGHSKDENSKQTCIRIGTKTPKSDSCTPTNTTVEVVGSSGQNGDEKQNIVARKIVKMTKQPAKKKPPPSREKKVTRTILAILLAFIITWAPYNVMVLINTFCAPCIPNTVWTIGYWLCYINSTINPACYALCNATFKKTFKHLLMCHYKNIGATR

For orientation: Ki means the equilibrium dissociation constant of an inhibitor or competing ligand from its target. A low value points to tighter binding.

Assay [1] concerns the target Muscarinic acetylcholine receptor M1 (Homo sapiens, UniProt P11229).
The target of assay [2] is Muscarinic acetylcholine receptor M3 (Homo sapiens, UniProt P20309).
Assay [3] addresses Muscarinic acetylcholine receptor M2 (Homo sapiens, UniProt P08172).

The molecule `NC(=O)C(c1ccccc1)(c1ccccc1)[C@@H]1CCN(CCc2ccc3c(c2)CCO3)C1` [Enablex] returned a Ki in assay [1] of 5.5 nM.
For the molecule `CC(C)[N+]1(C)[C@@H]2CC[C@H]1CC(OC(=O)[C@@H](CO)c1ccccc1)C2` (some centres undefined) [NSC_3746], the values for the Ki in assay [2], in assay [1] and in assay [3] were 0.51 nM, 0.49 nM and 1.5 nM, respectively.
